Measurements as given in US9675612B2, “Substituted thiazolopyrimidines” (BAYER PHARMA AKTIENGESELLSCHAFT, priority 2013, dated 2017).

Chains of the proteins cited; added tags and fusions are not shown. A line that says so, or that is headed by a name, gives the form on record, which may keep a tag or linker.
UniProt Q9BUB5, other isoform, or with tags, fused parts or gaps T344D: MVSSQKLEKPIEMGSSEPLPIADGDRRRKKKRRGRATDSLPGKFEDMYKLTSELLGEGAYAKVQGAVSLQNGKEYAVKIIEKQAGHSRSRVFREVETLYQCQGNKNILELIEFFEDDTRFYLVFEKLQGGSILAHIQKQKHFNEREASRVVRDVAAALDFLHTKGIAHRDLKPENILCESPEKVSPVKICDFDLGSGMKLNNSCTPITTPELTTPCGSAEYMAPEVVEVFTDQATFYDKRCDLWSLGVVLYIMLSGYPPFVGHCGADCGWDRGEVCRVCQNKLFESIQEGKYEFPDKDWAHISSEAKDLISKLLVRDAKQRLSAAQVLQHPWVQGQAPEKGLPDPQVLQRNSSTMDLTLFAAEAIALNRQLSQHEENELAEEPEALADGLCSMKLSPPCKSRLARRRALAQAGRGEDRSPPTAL

biological target: human full-length MKNK1 (Homo sapiens (Human), UniProt Q9BUB5, T344D); assay: MKNK1 kinase high ATP assay (TR-FRET); assay type: biochemical; details: high ATP (2 mM final), 15 min preincubation with MKNK1, TR-FRET
Protocol: MKNK1 Kinase High ATP Assay
MKNK1-inhibitory activity at high ATP of compounds of the present invention after their preincubation with MKNK1 was quantified employing the TR-FRET-based MKNK1 high ATP assay as described in the following paragraphs.
As substrate for the kinase reaction the biotinylated peptide biotin-Ahx-[…] (C-terminus in amide form) was used, which can be purchased e.g. from the company Biosyntan (Berlin-Buch, Germany).
For the assay 50 nL of a 100 fold concentrated solution of the test compound in DMSO was pipetted into a black low volume 384 well microtiter plate (Greiner Bio-One, Frickenhausen, Germany), 2 μL of a solution of MKNK1 in aqueous assay buffer [50 mM HEPES pH 7.5, 5 mM MgCl2, 1.0 mM dithiothreitol, 0.005% (v/v) Nonidet-P40 (Sigma)] was added and the mixture was incubated for 15 min at 22° C. to allow pre-binding of the test compounds to the enzyme before the start of the kinase reaction. Then the kinase reaction was started by the addition of 3 μL of a solution of adenosine-tri-phosphate (ATP, 3.3 mM=>final conc. in the 5 μL assay volume is 2 mM) and substrate (0.1 μM=>final conc. in the 5 μL assay volume is 0.06 μM) in assay buffer and the resulting mixture was incubated for a reaction time of 30 min at 22° C. The concentration of MKNK1 was adjusted depending of the activity of the enzyme lot and was chosen appropriate to have the assay in the linear range, typical concentrations were in the range of 0.003 μg/mL. The reaction was stopped by the addition of 5 μL of a solution of TR-FRET detection reagents (5 nM streptavidine-XL665 [Cisbio Bioassays, Codolet, France] and 1 nM anti-ribosomal protein S6 (pSer236)-antibody from Invitrogen [#44921G] and 1 nM LANCE EU-W1024 labeled ProteinG [Perkin-Elmer, product no. AD0071]) in an aqueous EDTA-solution (100 mM EDTA, 0.1% (w/v) bovine serum albumin in 50 mM HEPES pH 7.5).
The resulting mixture was incubated for 1 h at 22° C. to allow the formation of complex between the phosphorylated biotinylated peptide and the detection reagents. Subsequently the amount of phosphorylated substrate was evaluated by measurement of the resonance energy transfer from the Eu-chelate to the streptavidine-XL.

Compound	IC50 [nM]
CC1(O)CN(C(=O)CCCc2nc3c(Nc4ccc5[nH]ncc5c4)ncnc3s2)C1 [Example 12, 1-(3-Hydroxy-3-methylazetidin-1-yl)-4-[7-(1H-indazol-5-ylamino)[1,3]thiazolo[5,4-d]pyrimidin-2-yl]butan-1-one]	173
CCOc1cc2[nH]ncc2cc1Nc1ncnc2sc(C(=O)N(C)CCC(=O)N(C)C)nc12 [Example 42, N-[3-(Dimethylamino)-3-oxopropyl]-7-[(6-ethoxy-1H-indazol-5-yl)amino]-N-methyl[1,3]thiazolo[5,4-d]pyrimidine-2-carboxamide]	125
CC(C)Oc1cc2[nH]ncc2cc1Nc1ncnc2sc(CCc3ccccc3)nc12 [Example 17, 2-(2-Phenylethyl)-N-[6-(propan-2-yloxy)-1H-indazol-5-yl][1,3]thiazolo[5,4-d]pyrimidin-7-amine]	229
CN(C)C(=O)c1nc2c(Nc3ccc4[nH]c(=O)sc4c3)ncnc2s1 [Example 27, N,N-Dimethyl-7-[(2-oxo-2,3-dihydro-1,3-benzothiazol-6-yl)amino][1,3]thiazolo[5,4-d]pyrimidine-2-carboxamide]	408
COc1cc2[nH]c(=O)sc2cc1Nc1ncnc2scnc12 [Example 18, 5-Methoxy-6-([1,3]thiazolo[5,4-d]pyrimidin-7-ylamino)-1,3-benzothiazol-2(3H)-one]	104
CC(C)Oc1cc2[nH]ncc2cc1Nc1ncnc2sc(C(=O)N(C)CCC(=O)N(C)C)nc12 [Example 47, N-[3-(Dimethylamino)-3-oxopropyl]-7-[(6-isopropoxy-1H-indazol-5-yl)amino]-N-methyl[1,3]thiazolo[5,4-d]pyrimidine-2-carboxamide]	32
CN(C)C(=O)CCCc1nc2c(Nc3ccc4[nH]ncc4c3)ncnc2s1 [Example 13, 4-[7-(1H-Indazol-5-ylamino)[1,3]thiazolo[5,4-d]pyrimidin-2-yl]-N,N-dimethylbutanamide]	122
COc1cc2[nH]ncc2cc1Nc1ncnc2sc(C(=O)N(C)C)nc12 [Example 29, 7-[(6-Methoxy-1H-indazol-5-yl)amino]-N,N-dimethyl[1,3]thiazolo[5,4-d]pyrimidine-2-carboxamide]	199
O=c1[nH]c2ccc(Nc3ncnc4sc(C5CCCCC5)nc34)cc2s1 [Example 3, 6-[(2-Cyclohexyl[1,3]thiazolo[5,4-d]pyrimidin-7-yl)amino]-1,3-benzothiazol-2(3H)-one]	197
CN(C)C(=O)CCN(C)C(=O)c1nc2c(Nc3ccc4[nH]ncc4c3)ncnc2s1 [Example 40, N-[3-(Dimethylamino)-3-oxopropyl]-7-(1H-indazol-5-ylamino)-N-methyl[1,3]thiazolo[5,4-d]pyrimidine-2-carboxamide]	49
CC(C)Oc1cc2[nH]ncc2cc1Nc1ncnc2sc(C(=O)N(C)C)nc12 [Example 44, N,N-Dimethyl-7-{[6-(propan-2-yloxy)-1H-indazol-5-yl]amino}[1,3]thiazolo[5,4-d]pyrimidine-2-carboxamide]	52
